Consider one compound from publication PMC6248945, “Antibacterial properties of the pituitary adenylate cyclase-activating polypeptide: A new human antimicrobial peptide” (PLoS ONE, 2018).

Protein sequences, listed by entry. Tags and fused reporters are not part of them. Residues count along the entry.
UniProt P32241, 31-457: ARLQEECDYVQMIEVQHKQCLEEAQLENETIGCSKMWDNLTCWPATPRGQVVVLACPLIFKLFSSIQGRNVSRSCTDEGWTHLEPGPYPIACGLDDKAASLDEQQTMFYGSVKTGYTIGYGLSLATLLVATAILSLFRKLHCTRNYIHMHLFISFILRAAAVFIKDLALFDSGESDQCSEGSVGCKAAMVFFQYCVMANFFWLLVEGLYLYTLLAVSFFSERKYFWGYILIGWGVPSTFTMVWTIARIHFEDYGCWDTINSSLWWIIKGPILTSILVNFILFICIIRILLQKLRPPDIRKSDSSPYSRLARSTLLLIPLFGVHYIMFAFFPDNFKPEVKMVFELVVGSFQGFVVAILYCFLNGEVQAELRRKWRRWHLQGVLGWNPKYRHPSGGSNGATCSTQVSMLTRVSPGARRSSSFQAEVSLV

The target in one assay is T1, human VPAC1 receptor (Homo sapiens, UniProt P32241).
T1 construct: expressed in transfected cells
The assay can be described thus: Radioligand binding assay, 125I-Ac-PACAP27. Conditions: VPAC1 pIC50, CHO cells expressing human VPAC1; 0.05 nM 125I-Ac-PACAP27; 2h, room temperature. The method, then: (§1) Chinese hamster ovary (CHO) cells stably and individually expressing human receptor PAC1, VPAC1 or VPAC2 were grown in Ham’s F12 medium supplemented with 10% of fetal bovine serum (FBS), 2 mM L-glutamine, 100 UI/mL of penicillin and streptomycin (P/S) and 400 μg/mL of G418. The cell line was maintained at 37 °C in a humidified atmosphere of 5% CO2 and passages were performed by trypsinization when cells reached about 80% confluence.
(§2) Acetylated PACAP27 was radioiodinated using the chloramine-T oxidation technique and purified on a Sep-Pak C18 cartridge (Waters, Milford, MA, USA). Binding assays were performed using CHO cells stably transfected with the human PAC1, VPAC1 or VPAC2 receptor isoform. Cells were seeded at a density of 150,000 cells/well in 24-well plates. The next day, cells were washed with binding buffer (0.1% BSA, 25 mM Tris–HCl, 25 mM MgCl2, pH 7.4) for 10 min at room temperature. The solution was replaced with a fresh solution containing 0.05 nM of ^125I-Ac-PACAP27 and increasing concentrations of peptide (10^−14 to 10^-5M). After 2h of incubation at room temperature, cells were washed twice with the binding buffer and then lysed with sodium hydroxide (0.1 M). Cell-bound radioactivity was quantified using a γ-counter. Results were expressed as percentage of specific binding of ^125I-Ac-PACAP27.

A further assay has as its target T2, human VPAC2 receptor (Homo sapiens, UniProt P41587).
T2 construct: expressed in transfected cells
T2 sequence (P41587 24-438): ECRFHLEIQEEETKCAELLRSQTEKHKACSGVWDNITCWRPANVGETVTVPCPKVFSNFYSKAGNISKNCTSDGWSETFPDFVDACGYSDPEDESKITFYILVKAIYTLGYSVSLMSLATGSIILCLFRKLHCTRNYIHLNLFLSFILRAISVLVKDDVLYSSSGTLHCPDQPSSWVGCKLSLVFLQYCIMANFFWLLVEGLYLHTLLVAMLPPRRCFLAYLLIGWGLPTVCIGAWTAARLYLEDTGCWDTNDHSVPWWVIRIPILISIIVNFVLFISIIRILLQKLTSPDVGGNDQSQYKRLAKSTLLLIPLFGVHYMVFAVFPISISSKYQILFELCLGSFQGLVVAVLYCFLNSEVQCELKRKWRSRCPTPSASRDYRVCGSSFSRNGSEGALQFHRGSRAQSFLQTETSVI
The assay can be described thus: Radioligand binding assay, 125I-Ac-PACAP27. Conditions: CHO cells expressing human VPAC2; 0.05 nM 125I-Ac-PACAP27; 2h, room temperature; read-out: VPAC2 pIC50 (converted). As to the method:
as §1, §2

For the compound `CC[C@H](C)[C@H](NC(=O)CNC(=O)[C@H](CC(=O)O)NC(=O)[C@H](CO)NC(=O)[C@@H](N)Cc1cnc[nH]1)C(=O)N[C@@H](Cc1ccccc1)C(=O)N[C@H](C(=O)N[C@@H](CC(=O)O)C(=O)N[C@@H](CO)C(=O)N[C@@H](Cc1ccc(O)cc1)C(=O)N[C@@H](CO)C(=O)N[C@@H](CCCNC(=N)N)C(=O)N[C@@H](Cc1ccc(O)cc1)C(=O)N[C@@H](CCCNC(=N)N)C(=O)N[C@@H](CCCCN)C(=O)N[C@@H](CCC(N)=O)C(=O)N[C@@H](CCSC)C(=O)N[C@@H](C)C(=O)N[C@H](C(=O)N[C@@H](CCCCN)C(=O)N[C@@H](CCCCN)C(=O)N[C@@H](Cc1ccc(O)cc1)C(=O)N[C@@H](CC(C)C)C(=O)N[C@@H](C)C(=O)N[C@@H](C)C(=O)N[C@H](C(=O)N[C@@H](CC(C)C)C(=O)NCC(=O)N[C@@H](CCCCN)C(=O)N[C@@H](CCCNC(=N)N)C(=O)N[C@@H](Cc1ccc(O)cc1)C(=O)N[C@@H](CCCCN)C(=O)N[C@@H](CCC(N)=O)C(=O)N[C@@H](CCCNC(=N)N)C(=O)N[C@H](C(=O)N[C@@H](CCCCN)C(=O)N[C@@H](CC(N)=O)C(=O)N[C@@H](CCCCN)C(N)=O)C(C)C)C(C)C)C(C)C)[C@@H](C)O` [compound 1, PACAP38], the IC50 was 3.55 nM on human VPAC1 receptor and 18.2 nM on human VPAC2 receptor.
